Measured values as given in article PMC3310271 (Journal of agricultural and food chemistry, 2011).

Assay: TIM-1 gastrointestinal model bioaccessibility of maqui berry anthocyanins
Type: in vitro ADME

## OC[C@H]1O[C@@H](Oc2cc3c(O)cc(O)cc3[o+]c2-c2ccc(O)c(O)c2)[C@H](O[C@@H]2OC[C@@H](O)[C@H](O)[C@H]2O)[C@@H](O)[C@@H]1O.[Cl-] [Cyanidin-3-sambubioside]
  Total Bioaccessibility as % of intake: 0.75 +/− 0.75 % of intake
